The text below walks through data of US20250154138A1, “Small Molecule IL-17A Modulators” (BeiGene, Ltd., priority 2022, published 2025).

By UniProt entry, the sequences of proteins in these tests, tags left out. Residues count along the entry.
UniProt Q16552, 24-155 limits assumed: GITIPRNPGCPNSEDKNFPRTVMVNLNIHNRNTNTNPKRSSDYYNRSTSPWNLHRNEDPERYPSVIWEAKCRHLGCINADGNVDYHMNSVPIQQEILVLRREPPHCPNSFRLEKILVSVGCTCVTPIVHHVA

In experiment [1] the target is human IL-17A / human IL-17RA (Homo sapiens (Human), UniProt Q16552). Kind of experiment: Human IL-17A biochemical assay (HTRF, blocking of IL-17A binding to IL-17RA). For orientation: TR-FRET usually uses a lanthanide donor and a delayed reading to cut background.
In experiment [2] the test system is IL-17-induced GROα secretion from HT-29 cells. Kind of experiment: GROα release assay in human colorectal adenocarcinoma epithelial cell (HT-29, ELISA). The procedure: The purpose of the assay is to test the ability of a compound to neutralize IL17A proteins. IL17 can stimulate human epithelial cells to secrete GROα. The ability of one compound of the invention to neutralize IL-17-induced GROα secretion from the human colorectal adenocarcinoma epithelia cell line HT-29 is tested in this assay.
HT-29 cells (human colorectal adenocarcinoma epithelia cell, ATCC) were stimulated with IL-17A (Novoprotein, #C774) in final concentration of 10 ng/mL. The resultant GROα response was measured using an ELISA kit from Invitrogen (#88-52122). HT-29 cells were cultured in complete medium (McCoy's 5A medium+10% FBS) and maintained in a tissue culture flask using standard techniques. On day 1, detached the cell by using TrypLE (Gibco, #12605036) and used the complete medium to neutralize. The cells were centrifuged at 11,00 rmp for 4 minutes. Re-suspended the cell pellet in complete medium and seeded 50,000 HT-29 cells into the 96-well assay plate (Corning, 3599) at 135 μL complete medium per well. The cells were incubated for overnight, at 37° C./5% CO2 to adherent the plate. On day 2, prepared a 4-fold serial dilution of the tested compound in DMSO. The highest concentration of the compound was 10 μM. Transferred 2 μL of the serial diluted compound from the serial dilution plate into the reagent plate which was contained 198 μL complete medium with 100 ng/mL IL-17A per well. The compounds were incubated with the IL-17A for 15 minutes. 15 μL mixtures from reagent plate were transferred into the cell assay plate. Incubated the plate at 37° C./5% CO2 for 48 hours. After the incubation, on day 4, GROα level were measured with GROα ELISA as the manufacturer's instructions. 50 μL supernatant was collected form the assay plate to ELISA plate. ELISA plate was read at 450 nm on a microplate reader and compared to a standard calibration curve.
Data were processed using GraphPad Prism. GROα concentration was calculated from the standard curve. IC50 was determined using the equation log concentration (inhibitor) against response and fitted to four parameters.
(In an ELISA, binding on a coated surface is turned into a signal by an enzyme label.)

Where two headings read alike, the source gives them in different places.

Take `CC(C)n1nccc1C(=O)N[C@H](C(=O)Nc1ccc2c(c1)OC(C(C1CC1)N1C[C@@H](C(F)(F)F)NC1=O)C2)C(C1CC1)C1CC1` (single isomer, unassigned): the IC50 was determined as 18.6 nM in experiment [1] (read-out: Biochemical assay IL-17A/IL-17RA IC50, 0.4 nM IL-17A, 0.3 nM IL-17RA, max compound concentration 10 uM, listed as 290 isomer 1); 641 nM in experiment [1] (read-out: Biochemical assay IL-17A/IL-17RA IC50, 0.4 nM IL-17A, 0.3 nM IL-17RA, max compound concentration 10 uM, listed as 290 isomer 2); 60.3 nM in experiment [2] (read-out: Cellular assay HT29 cell/CXCL1 IC50, 10 ng/mL IL-17A, 48 hours, highest concentration 10 μM, listed as 290 isomer 1); 271 nM in experiment [2] (read-out: Cellular assay HT29 cell/CXCL1 IC50, 10 ng/mL IL-17A, 48 hours, highest concentration 10 μM, listed as 290 isomer 2).

In the case of `CNC(C(F)(F)F)C1(N2C[C@@H](C(C)C)NC2=O)Cc2ccc(NC(=O)[C@@H](NC(=O)c3nonc3C)C(C3CC3)C3CC3)cc2C1` (single isomer, unassigned), the IC50 in experiment [1] (read-out: Biochemical assay IL-17A/IL-17RA IC50, 0.4 nM IL-17A, 0.3 nM IL-17RA, max compound concentration 10 uM, listed as 292 isomer 1) is 287 nM; in experiment [1] (read-out: Biochemical assay IL-17A/IL-17RA IC50, 0.4 nM IL-17A, 0.3 nM IL-17RA, max compound concentration 10 uM, listed as 292 isomer 2), 213 nM; in experiment [2] (read-out: Cellular assay HT29 cell/CXCL1 IC50, 10 ng/mL IL-17A, 48 hours, highest concentration 10 μM, listed as 292 isomer 1) it was 206 nM; in experiment [2] (read-out: Cellular assay HT29 cell/CXCL1 IC50, 10 ng/mL IL-17A, 48 hours, highest concentration 10 μM, listed as 292 isomer 2) it was 496 nM.
